Data reported in patent publication US20220023257A1, “TREATMENT OF DEMENTIA-ASSOCIATED TAUOPATHIES” (Medizinische Hochschule Hannover (MHH), priority 2018, published 2022).

The chains behind the UniProt entries cited, without tags or fusion partners. Residues count along the entry.
UniProt P34969, 1-445 isoform P34969-2: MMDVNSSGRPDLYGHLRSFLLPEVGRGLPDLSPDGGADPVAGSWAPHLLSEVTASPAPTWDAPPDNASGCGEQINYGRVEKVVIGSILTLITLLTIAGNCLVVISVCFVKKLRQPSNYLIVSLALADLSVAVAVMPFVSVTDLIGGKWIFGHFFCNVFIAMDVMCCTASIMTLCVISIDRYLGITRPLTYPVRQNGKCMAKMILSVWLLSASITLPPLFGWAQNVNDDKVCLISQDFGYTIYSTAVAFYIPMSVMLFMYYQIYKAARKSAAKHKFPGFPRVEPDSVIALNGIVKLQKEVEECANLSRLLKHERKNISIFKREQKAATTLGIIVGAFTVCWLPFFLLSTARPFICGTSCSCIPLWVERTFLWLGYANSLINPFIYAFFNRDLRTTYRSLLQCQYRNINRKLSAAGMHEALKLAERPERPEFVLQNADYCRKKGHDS
UniProt P34969, whole entry: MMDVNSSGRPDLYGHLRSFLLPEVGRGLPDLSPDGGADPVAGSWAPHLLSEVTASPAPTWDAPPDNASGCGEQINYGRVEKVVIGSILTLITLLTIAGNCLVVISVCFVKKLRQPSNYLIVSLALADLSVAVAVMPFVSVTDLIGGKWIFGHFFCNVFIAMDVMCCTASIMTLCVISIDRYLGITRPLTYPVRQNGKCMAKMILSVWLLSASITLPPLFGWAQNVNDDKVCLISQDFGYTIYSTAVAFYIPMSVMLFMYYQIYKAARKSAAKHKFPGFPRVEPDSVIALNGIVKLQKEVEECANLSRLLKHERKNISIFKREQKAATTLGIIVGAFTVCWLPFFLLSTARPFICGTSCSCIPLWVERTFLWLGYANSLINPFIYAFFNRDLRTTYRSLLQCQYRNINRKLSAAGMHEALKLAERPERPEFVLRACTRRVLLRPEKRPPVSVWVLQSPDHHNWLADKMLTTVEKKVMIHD

Assays:
5-HT7R [1] = target: T1, 5-HT7R (Homo sapiens, UniProt P34969); details: literature: Mahe et al. 2004; Thomas et al. 1998; cited from earlier work
5-HT7R [2] = target: T1, 5-HT7R; assay: 5-HT7R-induced Tau aggregation in HEK293 Tau-BiFC cells; type: cell-based; design: HA (N); expressed in transfected cells; host or cells: N1E-115 (neuroblastoma cells); details: HEK293 Tau-BiFC cells transfected with CFP-5-HT7R; maximum intensity projections

## CC1CCN(CC[C@H]2CCCN2S(=O)(=O)c2cccc(O)c2)CC1 [SB-269970]
5-HT7R [1]
  mode of action at 5-HT7R: 5-HT7R antagonist with full inverse agonist properties
5-HT7R [2]
  Tangles of Venus-Tau (VN-Tau) in 5-HT7R-transfected cells: disappeared
